The record followed here is publication PMC5373932.

By UniProt entry, the sequences of proteins in these tests, tags left out. Residues count along the entry.
UniProt P17181, 28-436: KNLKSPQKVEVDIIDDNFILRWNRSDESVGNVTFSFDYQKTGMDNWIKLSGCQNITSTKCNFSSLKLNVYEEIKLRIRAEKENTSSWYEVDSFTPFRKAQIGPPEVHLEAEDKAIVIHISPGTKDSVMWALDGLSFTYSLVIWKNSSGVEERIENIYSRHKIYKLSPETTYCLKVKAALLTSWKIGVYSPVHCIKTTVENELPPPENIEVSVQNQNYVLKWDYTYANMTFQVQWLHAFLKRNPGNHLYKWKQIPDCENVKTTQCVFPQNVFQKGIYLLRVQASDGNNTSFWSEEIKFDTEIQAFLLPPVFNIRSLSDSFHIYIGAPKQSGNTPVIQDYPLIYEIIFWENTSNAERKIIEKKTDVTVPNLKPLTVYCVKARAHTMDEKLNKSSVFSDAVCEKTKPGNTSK

One may read the Kd as the free concentration of one partner at which half of the binding sites on the other are occupied at equilibrium, for simple one-to-one binding.

This assay has as its target recombinant type I interferon receptor subunit extracellular domain IFNAR1-EC (UniProt P17181). Briefly: SPR. (In general: Surface plasmon resonance follows binding to a sensor surface in real time, without labels.)

Regarding “super-compound interferon-I (sIFN-I) (ligand)”, the Kd was determined as 600 nM.
